Data as given in patent US20260242371A1, “LIPID PRODRUGS OF BROM[…] USES THEREOF” (priority 2023, published 2026).

Test: In vitro release of 2-bromo-LSD from lipid prodrugs in human plasma supplemented with lipoprotein lipase
Settings: 40 μM prodrug, human plasma with LPL, 0-180 minutes, 37° C.

| Structure (SMILES) | % 2-Br-LSD present at end of experiment |
| --- | --- |
| CCCCCCCC(=O)OCC(COC(=O)CCCCCCC)OC(=O)CC(C)CC(=O)OCOC(=O)n1c(Br)c2c3c(cccc31)C1=C[C@@H](C(=O)N(CC)CC)CN(C)[C@@H]1C2 (stereo partly drawn) [Compound I-7, 2BL-CASI-C5bMe-2-TG-octanoate] | +++ (+++ representing a percentage of 2-bromo-LSD greater than 25%) |
| CCCCCCCC/C=C\CCCCCCCC(=O)OCC(COC(=O)CCCCCCC/C=C\CCCCCCCC)OC(=O)CC(C)CC(=O)OCCCC(=O)n1c(Br)c2c3c(cccc31)C1=C[C@@H](C(=O)N(CC)CC)CN(C)[C@@H]1C2 (stereo partly drawn) [Compound I-14, 2BL-FSI4-C5bMe-2-TG-oleate] | +++ (+++ representing a percentage of 2-bromo-LSD greater than 25%) |
| CCCCCCCC/C=C\CCCCCCCC(=O)OCC(COC(=O)CCCCCCC/C=C\CCCCCCCC)OC(=O)CC(C)CCCCCCC(=O)n1c(Br)c2c3c(cccc31)C1=C[C@@H](C(=O)N(CC)CC)CN(C)[C@@H]1C2 (stereo partly drawn) [Compound I-24, 2BL-C10bMe-2-TG-oleate] | +++ (+++ representing a percentage of 2-bromo-LSD greater than 25%) |
| CCCCCCCC(=O)OCC(COC(=O)CCCCCCC)OC(=O)CC(C)(C)CCC(=O)OCOC(=O)n1c(Br)c2c3c(cccc31)C1=C[C@@H](C(=O)N(CC)CC)CN(C)[C@@H]1C2 [Compound I-23, 2BL-CASI-C6bbGMe-2-TG-octanoate] | +++ (+++ representing a percentage of 2-bromo-LSD greater than 25%) |
| CCCCCCCC(=O)OCC(COC(=O)CCCCCCC)OC(=O)CC1(CC(=O)OCCCCC(=O)n2c(Br)c3c4c(cccc42)C2=C[C@@H](C(=O)N(CC)CC)CN(C)[C@@H]2C3)CC1 [Compound I-18, 2BL-FSI5-C5bcPr-2-TG-octanoate] | +++ (+++ representing a percentage of 2-bromo-LSD greater than 25%) |
| CCCCCCCC(=O)OCC(COC(=O)CCCCCCC)OC(=O)CC1(CC(=O)OCCCC(=O)n2c(Br)c3c4c(cccc42)C2=C[C@@H](C(=O)N(CC)CC)CN(C)[C@@H]2C3)CC1 [I-15′, 2BL-FSI4-C5bcPr-2-TG-octanoate] | +++ (+++ representing a percentage of 2-bromo-LSD greater than 25%) |
| CCCCCCCC/C=C\CCCCCCCC(=O)OCC(COC(=O)CCCCCCC/C=C\CCCCCCCC)OC(=O)CC(C)CC(=O)Oc1ccc(COC(=O)n2c(Br)c3c4c(cccc42)C2=C[C@@H](C(=O)N(CC)CC)CN(C)[C@@H]2C3)cc1 (stereo partly drawn) [Compound I-21, 2BL-CPHB-C5bMe-2-TG-oleate] | +++ (+++ representing a percentage of 2-bromo-LSD greater than 25%) |
| CCCCCCCC(=O)OCC(COC(=O)CCCCCCC)OC(=O)CC(C)(C)CCC(=O)OCCCC(=O)n1c(Br)c2c3c(cccc31)C1=C[C@@H](C(=O)N(CC)CC)CN(C)[C@@H]1C2 [Compound I-22, 2BL-FSI4-C6bbGMe-2-TG-octanoate] | +++ (+++ representing a percentage of 2-bromo-LSD greater than 25%) |
| CCCCCCCC(=O)OCC(COC(=O)CCCCCCC)OC(=O)CC(C)(C)CCC(=O)OCCCCC(=O)n1c(Br)c2c3c(cccc31)C1=C[C@@H](C(=O)N(CC)CC)CN(C)[C@@H]1C2 [Compound I-19, 2BL-FSI5-C6bbGMe-2-TG-octanoate] | +++ (+++ representing a percentage of 2-bromo-LSD greater than 25%) |
| CCCCCCCC(=O)OCC(COC(=O)CCCCCCC)OC(=O)CC(C)(C)CC(=O)OCCCC(=O)n1c(Br)c2c3c(cccc31)C1=C[C@@H](C(=O)N(CC)CC)CN(C)[C@@H]1C2 [Compound I-15, 2BL-FSI4-C5bbGMe-2-TG-octanoate] | +++ (+++ representing a percentage of 2-bromo-LSD greater than 25%) |
| CCCCCCCC/C=C\CCCCCCCC(=O)OCC(COC(=O)CCCCCCC/C=C\CCCCCCCC)OC(=O)CC(C)CC(=O)OCCCCC(=O)n1c(Br)c2c3c(cccc31)C1=C[C@@H](C(=O)N(CC)CC)CN(C)[C@@H]1C2 (stereo partly drawn) [Compound I-17, 2BL-FSI5-C5bMe-2-TG-oleate] | +++ (+++ representing a percentage of 2-bromo-LSD greater than 25%) |
| CCCCCCCC(=O)OCC(COC(=O)CCCCCCC)OC(=O)CC(C)(C)CCC(=O)OCn1c(Br)c2c3c(cccc31)C1=C[C@@H](C(=O)N(CC)CC)CN(C)[C@@H]1C2 [Compound I-27, 2BL-ASI-C6bbGMe-2-TG-octanoate] | +++ (+++ representing a percentage of 2-bromo-LSD greater than 25%) |
| CCCCCCCC(=O)OCC(COC(=O)CCCCCCC)OC(=O)CC(C)(C)CC(=O)OCCCCC(=O)n1c(Br)c2c3c(cccc31)C1=C[C@@H](C(=O)N(CC)CC)CN(C)[C@@H]1C2 [Compound I-16, 2BL-FSI5-C5bbGMe-2-TG-octanoate] | +++ (+++ representing a percentage of 2-bromo-LSD greater than 25%) |
| CCCCCCCC/C=C\CCCCCCCC(=O)OCC(COC(=O)CCCCCCC/C=C\CCCCCCCC)OC(=O)CC(C)CC(=O)OCn1c(Br)c2c3c(cccc31)C1=C[C@@H](C(=O)N(CC)CC)CN(C)[C@@H]1C2 (stereo partly drawn) [Compound I-4, 2BL-ASI-C5bMe-2-TG-oleate] | +++ (+++ representing a percentage of 2-bromo-LSD greater than 25%) |
| CCCCCCCC/C=C\CCCCCCCC(=O)OCC(COC(=O)CCCCCCC/C=C\CCCCCCCC)OC(=O)CC(C)CC(=O)n1c(Br)c2c3c(cccc31)C1=C[C@@H](C(=O)N(CC)CC)CN(C)[C@@H]1C2 (stereo partly drawn) [Compound I-1, 2BL-C5bMe-2-TG-oleate] | + (+ representing a percentage of 2-bromo-LSD of less than 5%) |
| CCCCCCCC/C=C\CCCCCCCC(=O)OCC(COC(=O)CCCCCCC/C=C\CCCCCCCC)OC(=O)CC(C)CCCCC(=O)n1c(Br)c2c3c(cccc31)C1=C[C@@H](C(=O)N(CC)CC)CN(C)[C@@H]1C2 (stereo partly drawn) [Compound I-2, 2BL-C8bMe-2-TG-oleate] | +++ (+++ representing a percentage of 2-bromo-LSD greater than 25%) |
| CCCCCCCC(=O)OCC(COC(=O)CCCCCCC)OC(=O)CC1(CC(=O)OCn2c(Br)c3c4c(cccc42)C2=C[C@@H](C(=O)N(CC)CC)CN(C)[C@@H]2C3)CC1 [Compound I-25, 2BL-ASI-C5bcPr-2-TG-octanoate] | +++ (+++ representing a percentage of 2-bromo-LSD greater than 25%) |
| CCCCCCCC(=O)OCC(COC(=O)CCCCCCC)OC(=O)CC(C)(C)CC(=O)OCOC(=O)n1c(Br)c2c3c(cccc31)C1=C[C@@H](C(=O)N(CC)CC)CN(C)[C@@H]1C2 [Compound I-9, 2BL-CASI-C5bbGMe-2-TG-octanoate] | +++ (+++ representing a percentage of 2-bromo-LSD greater than 25%) |
| CCCCCCCC(=O)OCC(COC(=O)CCCCCCC)OC(=O)CC1(CC(=O)n2c(Br)c3c4c(cccc42)C2=C[C@@H](C(=O)N(CC)CC)CN(C)[C@@H]2C3)CC1 [Compound I-26, 2BL-C5bcPr-2-TG-octanoate] | +++ (+++ representing a percentage of 2-bromo-LSD greater than 25%) |
| CCCCCCCC/C=C\CCCCCCCC(=O)OCC(COC(=O)CCCCCCC/C=C\CCCCCCCC)OC(=O)CC(C)CC(=O)Oc1ccc(Cn2c(Br)c3c4c(cccc42)C2=C[C@@H](C(=O)N(CC)CC)CN(C)[C@@H]2C3)cc1 (stereo partly drawn) [Compound I-20, 2BL-PHB-C5bMe-2-TG-oleate] | + (+ representing a percentage of 2-bromo-LSD of less than 5%) |
| CCCCCCCC(=O)OCC(COC(=O)CCCCCCC)OC(=O)CC1(CC(=O)OCOC(=O)n2c(Br)c3c4c(cccc42)C2=C[C@@H](C(=O)N(CC)CC)CN(C)[C@@H]2C3)CC1 [I-9′, 2BL-CASI-C5bcPr-2-TG-octanoate] | +++ (+++ representing a percentage of 2-bromo-LSD greater than 25%) |
